High-throughput results deposited in PubChem by National Center for Advancing Translational Sciences (NCATS).
In the library only some 0.1% were active in any assay of this set; here they are far more common.
Rango-impB inh – inhibitors of Rango-importin beta complex formation; Q14974; Rango CFP/YFP FRET sensor + importin beta, 45 min; Potency, µM (doses to about 92.2 µM), for inactives: at the highest dose inhibition of complex formation; hit rate 0.031% among 340,000; AID 540263;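 note: 0% = DMSO wells and 100% = buffer wells lacking importin beta; nearly all actives have a fitted effect of over 15% in size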
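Inhibition scored from the CFP 486 nm/YFP 530 nm FRET ratio 45 min after adding 0.125 microM importin beta to 50 nM Rango biosensor preincubated 5 min with compound (room temperature, PBS with DTT, Tween-20, BSA). No-importin wells as positive control.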
LMNA splice mod – LMNA splicing modulation. HeLa LMNA splicing GFP/RFP minigene ratio, 48 h. Potency, µM (doses to about 46.1 µM), without a hit: top-dose ratio change, negative = inhibition, usual class: inhibitors. hit rate 0.01% among 200,000. AID 1487; active = well fitted inhibition curve with a large enough effect in the signal ratio, with a control signal flat, not every such curve was filed as active; inconclusive = small, poorly fitted or top-dose-only effect, or effect the other way, or a change in a side signal; the % refers to the signal ratio; note: % is set by controls: 0 for no effect and ±100 for the full control effect
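S3 HeLa stable clones carrying a lamin A-EGFP splicing minigene plus DsRed2 were seeded at 600 cells/well in Opti-MEM with 2% FBS, pin-dosed and incubated 48 h at 37°C. Acumen cytometry (488 nm) gave the GFP/RFP total-intensity ratio.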
Rango dissoc inh – inhibitors of RanGTP-induced Rango-importin beta complex dissociation; Biochemical FRET Rango-importin beta, RanGTP-induced dissociation; Potency, µM (top dose mostly 46.1 µM), for the others: at the highest dose activity change, negative = inhibition; hit rate 0.071% among 340,000; AID 540253; note: % of control where 0% means no effect; nearly all actives have a fitted effect of over 45% in size
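Rango/importin beta premix (0.1/0.25 uM final), PBS + 1 mM DTT + 0.02% Tween-20 + 0.1% BSA; cpd 5 min RT; FRET pre-read; + RanGTP-RCC1 (0.6 uM Ran, 2 mM GTP, 0.2 uM RCC1); 45 min RT; FRET post-read, ex 430, em 486/530 nm.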
The depositor's hits bear a star; ? = inconclusive; · = no result; [ ] = another dose, or the depositor's remark. Unless noted, calls come from the whole dose curve. Potency is the fitted concentration of half-maximal effect.

Start of the listing, in advance:
SMILES | Rango-impB inh | LMNA splice mod | Rango dissoc inh
C#CCOCCOCCOCCNc1nc(N2CCN(C(=O)CCCCCCCCCCNC(=O)[C@H](CCCCN)n3cc(C[C@@H](C)CC)nn3)CC2)nc(N2CCN(C(=O)CCCCCCCCCCNC(=O)[C@H](CCCN=C(N)N)n3cc(C[C@@H](C)CC)nn3)CC2)n1 | 65.1µM* | · | ?
C#CCOCCOCCOCCNc1nc(N2CCN(C(=O)CCCCCCCCCCNC(=O)[C@H](CCCCN)n3cc(C)nn3)CC2)nc(N2CCN(C(=O)CCCCCCCCCCNC(=O)[C@H](CCCN=C(N)N)n3cc(C[C@@H](C)CC)nn3)CC2)n1 | 15.5% | · | ?
C#CCOCCOCCOCCNc1nc(N2CCN(C(=O)C([C@@H](C)O)n3cc([C@@H](N)CCCCN)nn3)CC2)nc(N2CCN(C(=O)[C@H](CCCN=C(N)N)n3cc(C(N)[C@@H](C)CC)nn3)CC2)n1 (some centres not stated) | 51.7µM* | · | -10.0%
C#CCOCCOCCOCCNc1nc(N2CCN(C(=O)C([C@@H](C)O)n3cc([C@@H](N)CCCCN)nn3)CC2)nc(N2CCN(C(=O)[C@H](CCCCN)n3cc([C@@H](N)[C@H](C)CC)nn3)CC2)n1 (some centres not stated) | 19.4% | · | -1.9%

The whole of this part, repeating the preview:
SMILES | Rango-impB inh | LMNA splice mod | Rango dissoc inh
C#CCOCCOCCOCCNc1nc(N2CCN(C(=O)CCCCCCCCCCNC(=O)[C@H](CCCCN)n3cc(C[C@@H](C)CC)nn3)CC2)nc(N2CCN(C(=O)CCCCCCCCCCNC(=O)[C@H](CCCN=C(N)N)n3cc(C[C@@H](C)CC)nn3)CC2)n1 | 65.1µM* | · | ?
C#CCOCCOCCOCCNc1nc(N2CCN(C(=O)CCCCCCCCCCNC(=O)[C@H](CCCCN)n3cc(C)nn3)CC2)nc(N2CCN(C(=O)CCCCCCCCCCNC(=O)[C@H](CCCN=C(N)N)n3cc(C[C@@H](C)CC)nn3)CC2)n1 | 15.5% | · | ?
C#CCOCCOCCOCCNc1nc(N2CCN(C(=O)C([C@@H](C)O)n3cc([C@@H](N)CCCCN)nn3)CC2)nc(N2CCN(C(=O)[C@H](CCCN=C(N)N)n3cc(C(N)[C@@H](C)CC)nn3)CC2)n1 (some centres not stated) | 51.7µM* | · | -10.0%
C#CCOCCOCCOCCNc1nc(N2CCN(C(=O)C([C@@H](C)O)n3cc([C@@H](N)CCCCN)nn3)CC2)nc(N2CCN(C(=O)[C@H](CCCCN)n3cc([C@@H](N)[C@H](C)CC)nn3)CC2)n1 (some centres not stated) | 19.4% | · | -1.9%
CN(C)CCCSc1nc2ccccc2s1 | -0.1% | · | 0.3%
CC1(C)CC(=O)C/C(=N\NC(=S)NCc2ccccc2)C1 | 3.3% | -14.5%[46 µM] | -12.3%
CC1(C)CC(=O)CC(=NCC(=O)O)C1 | ? | -0.1% | 25.9µM*
CCSC1=N/C(=C\c2ccc3c(c2)OCO3)C(=O)S1 | ? | -8.4% | 16.4µM*
CCCSC1=N/C(=C\c2ccc3c(c2)OCO3)C(=O)S1 | ? | -1.4% | ?
CS(=O)(=O)c1ccc(NC(=O)CCN2C(=O)C3CCCCC3C2=O)cc1 (configuration not stated) | 0.7% | · | 1.4%
CCCOc1ccc(C(=O)Nc2cc(-c3nn4c(C)nnc4s3)ccc2C)cc1 | 2.5% | 0.1% | -15.4%
CCn1nc(NC(=O)C(C)C)c2cc3ccc(C)cc3nc21 | ? | · | -38.2%
CCn1nc(NC(C)=O)c2cc3ccc(C)cc3nc21 | ? | · | 9.2µM*
O=C(NCC1CCN(Cc2cccc(Cl)c2)CC1)c1cc2ccc3cccnc3c2[nH]1 | · | -7.0%[46 µM] | ·
C=CCN1C(=O)CN=C1Nc1ccc(F)cc1 | 0.2% | 5.0%[46 µM] | 1.9%
CCNc1nc2c(c(=O)[nH]c(=O)n2C)n1CCCc1ccccc1 | -6.3% | · | -16.8%
COc1ccc(-c2csc(NC(=O)CSc3nc4ccccc4c(=O)[nH]3)n2)cc1 | 0.1% | · | -16.0%
Cn1ccnc1SCC(=O)c1c(N)n(C)c(=O)n(C)c1=O | ? | · | -7.8%
COCC(C)NCc1ccccc1C (configuration not stated) | 18.4µM* | 1.9% | 20.9%
COCC(C)NCc1cccc(OC)c1OC (configuration not stated) | -1.2% | 10.4% | -9.6%
CN(C)c1ccc(-c2nc(N(C)C)c3ccccc3n2)cc1 | · | 12.6µM* | ·
Cc1ccccc1-c1nc(N(C)C)c2ccccc2n1 | · | -4.9% | ·
CCN(C(=O)CN1CC(C)OC(C)C1)c1c(N)n(Cc2ccccc2)c(=O)[nH]c1=O (configuration not stated) | -3.5% | -7.9%[46 µM] | 0.2%
N#C/C(=C\c1ccc[nH]1)C(=O)Nc1ccccc1F | -0.7% | · | 6.4%
N#C/C(=C\c1ccc[nH]1)C(=O)Nc1ccccc1Cl | 16.4µM* | · | 1.1%
CCC(C)c1ccc(OCCN2CCCC2)cc1 (configuration not stated) | 0.4% | 7.2% | -6.9%
O=C(CN(Cc1ccccc1)S(=O)(=O)c1ccc(F)cc1)NCc1ccncc1 | -0.6% | · | 1.7%
COc1ccc(Nc2nc(N)nc(CN(C)C3CCCCC3)n2)cc1 | -0.6% | 4.1% | 10.5%
CCOc1ccc(Nc2nc(N)nc(CN(C)C3CCCCC3)n2)cc1 | 58µM* | -2.2% | 1.5%
Cc1cc(=O)oc2cc(NS(=O)(=O)c3ccc(F)cc3)ccc12 | ? | 0.4%[46 µM] | ?
Cc1cc(=O)oc2cc(NS(=O)(=O)c3ccccc3)ccc12 | -11.0% | · | 16.4µM*
Cn1c(/N=C/c2c(O)ccc3ccccc23)nc2ccccc21 | ? | ? | -25.5%
Cc1ccc(S(=O)(=O)Nc2ccccc2/C=N/c2nc3ccccc3n2C)cc1 | ? | ? | 8.2µM*[inhibitor]
Cc1ccc(S(=O)(=O)Nc2ccccc2C=Nc2cccc(C)c2C)cc1 | ? | ? | 7.31µM*
Cc1ccc(S(=O)(=O)Nc2ccccc2N=Cc2c(F)c(F)c(F)c(F)c2F)cc1 | ? | · | 1.9%
CC(C)CC(NS(=O)(=O)c1ccccc1S(=O)(=O)NC(CC(C)C)C(=O)O)C(=O)O (configuration not stated) | 0.1% | · | -6.7%
